The target of experiment [1] is Estrogen receptor beta (Homo sapiens) (UniProt Q92731). Nature of the experiment: Displacement of [3H]-estradiol from full length human ERbeta expressed in insect cells after 18 to 24 hrs by radiometric method relative to estradiol.
Experiment [2] addresses Estrogen receptor (Homo sapiens) (UniProt P03372). Nature of the experiment: Displacement of [3H]-estradiol from full length human untagged ERalpha expressed in Sf insect cells after 18 to 24 hrs by radiometric method relative to estradiol. (Displacement assays read how much labelled ligand stays bound in the presence of the test substance.)

Sequences of proteins named here, by UniProt entry; tags and fusion partners are left off.
UniProt Q92731, whole entry: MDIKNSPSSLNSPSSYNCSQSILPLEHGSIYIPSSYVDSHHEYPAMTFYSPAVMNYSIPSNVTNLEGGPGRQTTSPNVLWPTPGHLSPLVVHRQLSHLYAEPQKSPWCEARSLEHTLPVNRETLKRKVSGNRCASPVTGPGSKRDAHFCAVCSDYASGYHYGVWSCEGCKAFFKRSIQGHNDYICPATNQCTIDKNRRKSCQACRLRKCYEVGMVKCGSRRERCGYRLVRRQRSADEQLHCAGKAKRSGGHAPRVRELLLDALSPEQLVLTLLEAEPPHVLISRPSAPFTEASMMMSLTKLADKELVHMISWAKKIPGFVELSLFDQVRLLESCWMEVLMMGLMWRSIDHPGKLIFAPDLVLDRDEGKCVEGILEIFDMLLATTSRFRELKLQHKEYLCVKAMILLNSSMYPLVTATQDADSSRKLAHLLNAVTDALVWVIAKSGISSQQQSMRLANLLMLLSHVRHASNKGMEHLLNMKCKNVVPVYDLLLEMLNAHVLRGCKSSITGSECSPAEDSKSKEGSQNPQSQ
UniProt P03372, whole entry: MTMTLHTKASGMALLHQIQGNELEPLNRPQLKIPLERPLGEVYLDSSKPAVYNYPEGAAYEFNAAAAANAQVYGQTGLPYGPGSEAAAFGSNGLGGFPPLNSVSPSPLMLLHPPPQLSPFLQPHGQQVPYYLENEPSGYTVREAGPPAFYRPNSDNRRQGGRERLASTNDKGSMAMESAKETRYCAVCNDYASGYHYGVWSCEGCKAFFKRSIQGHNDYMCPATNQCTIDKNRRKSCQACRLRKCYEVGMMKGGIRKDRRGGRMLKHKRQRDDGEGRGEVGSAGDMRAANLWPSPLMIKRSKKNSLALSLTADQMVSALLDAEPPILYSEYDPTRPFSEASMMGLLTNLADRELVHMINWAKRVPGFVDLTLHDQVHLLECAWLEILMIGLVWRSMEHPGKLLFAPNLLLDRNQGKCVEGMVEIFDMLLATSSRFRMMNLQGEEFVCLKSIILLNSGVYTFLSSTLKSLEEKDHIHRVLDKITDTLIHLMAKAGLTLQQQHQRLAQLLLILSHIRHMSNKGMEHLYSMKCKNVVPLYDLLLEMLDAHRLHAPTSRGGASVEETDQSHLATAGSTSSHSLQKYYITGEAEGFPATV

Each structure is given as a SMILES string.

`CCCCCCCCCCC/C(=N\O)c1cc(-c2ccc(O)c(F)c2)ccc1O`: the RBA in experiment [1] worked out at 6.8%; in experiment [2] it was 0.31%.
For `CCCCCCCCCCCCC/C(=N\O)c1cc(-c2ccc(O)c(F)c2)ccc1O`, the RBA worked out at 2.6% in experiment [1] and 0.17% in experiment [2].

These data come from ChEMBL document CHEMBL4270621, “Discovery of long-chain salicylketoxime derivatives as monoacylglycerol lipase (MAGL) inhibitors” (Eur J Med Chem, 2018).
